B1: Innate immunity activator protein (Homo sapiens), Q3KP66 (parent)
chain: MLQMPKLNEIPPGRAGRREARGEGRWPGQTGPEAARLEWRAQGQAGGARAPWDSWGSSRLPTQPGPGWSRCPPSLLCALSFQKSTMESKDEVSDTDSGIILQSGPDSPVSPMKELTHAVHKQQRALEARLEACLEELRRLCLREAELTGTLPAEYPLKPGEKAPKVRRRIGAAYKLDDWALHREDPLSSLERQLALQLQITEAARRLCLEENLSRQARRQRKHSMLQEEKKLQELQRCLVERRRNSEPPPAAALPLGRELSASDDSSLSDGLLLEEEESQVPKPPPESPAPPSRPLPPQTLEGLQPTGPEAGSPERAPVQNSPWKETSLDHPYEKPRKSSEPWSESSSPATTPQDGPSASSLWLLEPASYHVVPIRGVPGQWQGRTSAPATPEIQGRRGQSQSLRVDSFRAGPEGRGRSAFPRRRPTHYTVTVPDSCFPATKPPLPHAACHSCSEDSGSDVSSISHPTSPGSSSPDISFLQPLSPPKTHRHRGAWVPAGSRELVAHHPKLLLPPGYFPAGRYVVVAESPLPPGEWELRRAAPGPAYEEEGTPLRYQRLVPSRSRIVRTPSLKDSPAGRGLSKAAVSEELKWWHERARLRSTRPHSLDRQGAFRVRSLPLGREGFGRALGPRAQVPTVCVLRRSPDGAPVQVFVPEKGEIISQV

The variants in the assay derive from B1. The conditions noted are these: with cyh1_human CYTH1, Q15438.
As to Y333F, the “effect of a mutation on the interaction” value was “increasing interaction”.

(Values after IntAct's records for PubMed 29420262.)
